Measured values taken from patent US12091425B2 (AMGEN INC., priority 2016, dated 2024).
Where two headings read alike, the source gives them in different places.

By UniProt entry, the sequences of proteins in these tests, tags left out. Residues count along the entry.
UniProt Q07820, 171-327 limits assumed: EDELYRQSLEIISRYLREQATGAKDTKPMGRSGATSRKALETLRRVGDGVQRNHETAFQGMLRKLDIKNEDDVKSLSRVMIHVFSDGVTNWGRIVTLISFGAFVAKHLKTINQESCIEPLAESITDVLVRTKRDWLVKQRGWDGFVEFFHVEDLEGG

What was measured:
[1] = tested on: OPM-2 human multiple myeloma cell line; assay: Cell Viability Assay (OPM-2 10 FBS); assay type: cell-based
[2] = target: Mcl-1/Bim interaction, recombinant human Mcl-1 (171-327) (Homo sapiens, UniProt Q07820); assay: Cell free Mcl-1: Bim Affinity Assay (Mcl-1 HTRF); assay type: binding; details: read-out: Mcl-1 HTRF
[3] = read-out: OPM-2 10% FBS, OPM-2 cells, 16 h, CellTiter-Glo
[4] = TR-FRET, 0.1 nM Mcl-1 (171-327), 0.05 nM biotin-Bim (51-76)
[5] = cell free Mcl-1:Bim TR-FRET, recombinant human Mcl-1 (171-327)

SMILES	IC50 [1, 3] [nM]	IC50 [2, 4] [nM]	IC50 [2, 5] [nM]	IC50 ([1]; read-out: OPM-2 10% FBS, OPM-2 cells, 16 h incubation, CellTiter-Glo) [nM]
C[C@H]1C/C=C/[C@H](O)[C@@H]2CC[C@H]2CN2C[C@@]3(CCCc4cc(Cl)ccc43)COc3ccc(cc32)C(=O)NS(=O)(=O)C1CC1CCCO1 (single isomer, unassigned) [Example 168]	107	0.255	–	–
COC(=O)C(C(=O)OC)C1CC(O)[C@@H]2CC[C@H]2CN2C[C@@]3(CCCc4cc(Cl)ccc43)COc3ccc(cc32)C(=O)NS(=O)(=O)[C@H](C)[C@@H](C)C1 (single isomer, unassigned) [Example 244]	410	2.13	–	–
O=C1NS(=O)(=O)C(CN2CCOCC2)CC/C=C/[C@H](O)[C@@H]2CC[C@H]2CN2C[C@@]3(CCCc4cc(Cl)ccc43)COc3ccc1cc32 (some centres unmarked)	556	0.276	–	–
CC1CC[C@@H](C)S(=O)(=O)NC(=O)c2ccc3c(c2)N(C[C@@H]2CC[C@H]2C(O)C1)C[C@@]1(CCCc2cc(Cl)ccc21)CO3 (single isomer, unassigned) [Example 262]	13900	17.1	–	–
C[C@H]1CC=C[C@H](O)[C@@H]2CC[C@H]2CN2C[C@@]3(CCCc4cc(Cl)ccc43)COc3ccc(cc32)C(=O)NS(=O)(=O)C1CC(F)(F)F (single isomer, unassigned) [Example 662]	1390	–	1.12	–
CC1CC[C@H](C)S(=O)(=O)NC(=O)c2ccc3c(c2)N(C[C@@H]2CC[C@H]2C(O)C1)C[C@@]1(CCCc2cc(Cl)ccc21)CO3 (single isomer, unassigned) [Example 265]	81.5	0.285	–	–
CC[C@@H]1CCC(OCCOC)/C=C/[C@@H]2CC[C@H]2CN2C[C@@]3(CCCc4cc(Cl)ccc43)COc3ccc(cc32)C(=O)NS1(=O)=O (some centres unmarked)	3870	3.58	–	–
CC1CC=C[C@H](O)[C@@H]2CC[C@H]2CN2C[C@@]3(CCCc4cc(Cl)ccc43)COc3ccc(cc32)C(=O)NS(=O)(=O)C1CC1CCO1 (some centres unmarked)	419	0.416	–	–
COCCO[C@H]1/C=C/CC(C)C(CC2CC2)S(=O)(=O)NC(=O)c2ccc3c(c2)N(C[C@@H]2CC[C@H]21)C[C@@]1(CCCc2cc(Cl)ccc21)CO3 (single isomer, unassigned)	484	1.05	–	–
O=C1NS(=O)(=O)C2CC2C/C=C/[C@H](O)[C@@H]2CC[C@H]2CN2C[C@@]3(CCCc4cc(Cl)ccc43)COc3ccc1cc32 (single isomer, unassigned) [Example 795]	392	–	0.38	–
COC1C/C=C/[C@H](O)[C@@H]2CC[C@H]2CN2C[C@@]3(CCCc4cc(Cl)ccc43)COc3ccc(cc32)C(=O)NS(=O)(=O)C1C (single isomer, unassigned)	338	0.22	–	–
COC(=O)C(C(=O)OC)C1CC(O)[C@@H]2CC[C@H]2CN2C[C@@]3(CCCc4cc(Cl)ccc43)COc3ccc(cc32)C(=O)NS(=O)(=O)[C@H](C)[C@@H](C)C1 (single isomer, unassigned) [Example 245]	6100	12	–	–
CC1CC(O)[C@@H]2CC[C@H]2CN2C[C@@]3(CCCc4cc(Cl)ccc43)COc3ccc(cc32)C(=O)NS(=O)(=O)C[C@@H](C)C1 (single isomer, unassigned) [Example 271]	20900	4.89	–	–
COC1C/C=C/[C@H](O)[C@@H]2CC[C@H]2CN2C[C@@]3(CCCc4cc(Cl)ccc43)COc3ccc(cc32)C(=O)NS(=O)(=O)C1CC1CCCO1 (single isomer, unassigned)	107	–	0.171	–
CC(C)CC1CC(C)/C=C/[C@H](O)[C@@H]2CC[C@H]2CN2C[C@@]3(CCCc4cc(Cl)ccc43)COc3ccc(cc32)C(=O)NS1(=O)=O (single isomer, unassigned) [Example 481]	1870	–	0.541	–
COC1C/C=C/[C@H](OC)[C@@H]2CC[C@H]2CN2C[C@@]3(CCCc4cc(Cl)ccc43)COc3ccc(cc32)C(=O)NS(=O)(=O)C1C (single isomer, unassigned) [Example 716]	23500	–	17.3	–
O=C1NS(=O)(=O)CCOC2CCOC(C2)[C@@H]2CC[C@H]2CN2C[C@@]3(CCCc4cc(Cl)ccc43)COc3ccc1cc32 (single isomer, unassigned) [Example 837]	4080	–	1.2	–
CC1C(C2CC2)C/C=C/[C@H](O)[C@@H]2CC[C@H]2CN2C[C@@]3(CCCc4cc(Cl)ccc43)COc3ccc(cc32)C(=O)NS1(=O)=O (single isomer, unassigned) [Example 676]	3910	–	2.03	–
C[C@@H]1[C@@H](C)CC(N(C)CC(=O)O)CC(O)[C@@H]2CC[C@H]2CN2C[C@@]3(CCCc4cc(Cl)ccc43)COc3ccc(cc32)C(=O)NS1(=O)=O (single isomer, unassigned)	280	0.224	–	–
CC1C/C=C/[C@H](O)[C@@H]2CC[C@H]2CN2C[C@@]3(CCCc4cc(Cl)ccc43)COc3ccc(cc32)C(=O)NS(=O)(=O)C1Cc1cccs1 (single isomer, unassigned) [Example 635]	98.5	–	0.984	–

SMILES	IC50 [1, 3] [nM]	IC50 [2, 4] [nM]	IC50 [2, 5] [nM]	IC50 ([1]; read-out: OPM-2 10% FBS, OPM-2 cells, 16 h incubation, CellTiter-Glo) [nM]
COC1C/C=C/[C@H](O)[C@@H]2CC[C@H]2CN2C[C@@]3(CCCc4cc(Cl)ccc43)COc3ccc(cc32)C(=O)NS(=O)(=O)C1CC(C)C (single isomer, unassigned)	4260	–	11.4	–
O=C1NS(=O)(=O)C2CC2C/C=C/[C@H](O)[C@@H]2CC[C@H]2CN2C[C@@]3(CCCc4cc(Cl)ccc43)COc3ccc1cc32 (single isomer, unassigned) [Example 794]	1900	–	1.51	–
CCC1C(OC)C/C=C/[C@H](O)[C@@H]2CC[C@H]2CN2C[C@@]3(CCCc4cc(Cl)ccc43)COc3ccc(cc32)C(=O)NS1(=O)=O (single isomer, unassigned)	122	0.201	–	–
CC1/C=C/C(O)[C@@H]2CC[C@H]2CN2C[C@@]3(CCCc4cc(Cl)ccc43)COc3ccc(cc32)C(=O)NS(=O)(=O)CC1(C)C (single isomer, unassigned)	660	–	0.983	–
O=C1NS(=O)(=O)C(CC2CC2)CCC=C[C@H](O)[C@@H]2CC[C@H]2CN2C[C@@]3(CCCc4cc(Cl)ccc43)COc3ccc1cc32 (single isomer, unassigned) [Example 159]	3300	2.66	–	–
C[C@H]1C/C=C/[C@H](O)[C@@H]2CC[C@H]2CN2C[C@@]3(CCCc4cc(Cl)ccc43)COc3ccc(cc32)C(=O)NS(=O)(=O)C1CC1CCCO1 (single isomer, unassigned) [Example 167]	122	0.251	–	–
COC[C@@H]1CC(C)CC[C@H](O)[C@@H]2CC[C@H]2CN2C[C@@]3(CCCc4cc(Cl)ccc43)COc3ccc(cc32)C(=O)NS1(=O)=O (single isomer, unassigned)	–	1.18	–	2200
COC1C/C=C/[C@H](OC)[C@@H]2CC[C@H]2CN2C[C@@]3(CCCc4cc(Cl)ccc43)COc3ccc(cc32)C(=O)NS(=O)(=O)C1C (single isomer, unassigned) [Example 714]	1360	–	1.81	–
CC1COC2CC1OCCS(=O)(=O)NC(=O)c1ccc3c(c1)N(C[C@@H]1CC[C@@H]21)C[C@@]1(CCCc2cc(Cl)ccc21)CO3 (single isomer, unassigned)	5830	–	2.48	–
C/C1=C\C(O)[C@@H]2CC[C@H]2CN2C[C@@]3(CCCc4cc(Cl)ccc43)COc3ccc(cc32)C(=O)NS(=O)(=O)CCC1 (single isomer, unassigned) [Example 238]	17600	1.57	–	–
COC1C/C=C/[C@H](O)[C@@H]2CC[C@H]2CN2C[C@@]3(CCCc4cc(Cl)ccc43)COc3ccc(cc32)C(=O)NS(=O)(=O)C1CC1CCC1 (single isomer, unassigned) [Example 639]	348	–	0.809	–
COCCOCCC1C(C)C/C=C\[C@H](O)[C@@H]2CC[C@H]2CN2C[C@@]3(CCCc4cc(Cl)ccc43)COc3ccc(cc32)C(=O)NS1(=O)=O (some centres unmarked)	99.6	0.0856	–	–
CC1C/C=C/[C@H](O)[C@@H]2CC[C@H]2CN2C[C@@]3(CCCc4cc(Cl)ccc43)COc3ccc(cc32)C(=O)NS(=O)(=O)C1Cc1cccs1 (single isomer, unassigned) [Example 634]	2140	–	11.5	–
CC(C)CC1CC(C)/C=C/[C@H](O)[C@@H]2CC[C@H]2CN2C[C@@]3(CCCc4cc(Cl)ccc43)COc3ccc(cc32)C(=O)NS1(=O)=O (single isomer, unassigned) [Example 483]	12000	–	20.2	–
CC1CC(O)[C@@H]2CC[C@H]2CN2C[C@@]3(CCCc4cc(Cl)ccc43)COc3ccc(cc32)C(=O)NS(=O)(=O)C[C@@H](C)C1 (single isomer, unassigned) [Example 269]	5560	25.7	–	–
CO[C@H]1/C=C/CCC(C(=O)N2CCN(S(=O)(=O)N(C)C)CC2)S(=O)(=O)NC(=O)c2ccc3c(c2)N(C[C@@H]2CC[C@H]21)C[C@@]1(CCCc2cc(Cl)ccc21)CO3 (single isomer, unassigned)	773	0.716	–	–
O=C1NS(=O)(=O)CCOC2CCOC(C2)[C@@H]2CC[C@H]2CN2C[C@@]3(CCCc4cc(Cl)ccc43)COc3ccc1cc32 (single isomer, unassigned) [Example 836]	706	–	0.628	–
CC1C/C=C/[C@H](O)[C@@H]2CC[C@H]2CN2C[C@@]3(CCCc4cc(Cl)ccc43)COc3ccc(cc32)C(=O)NS(=O)(=O)C1CC1CCOCC1 (single isomer, unassigned) [Example 189]	1210	3.48	–	–
CC1/C=C/[C@H](O)[C@@H]2CC[C@H]2CN2C[C@@]3(CCCc4cc(Cl)ccc43)COc3ccc(cc32)C(=O)NS(=O)(=O)C(C(C)C)C1 (single isomer, unassigned)	1540	–	0.718	–
CC1CC[C@@H](C)S(=O)(=O)NC(=O)c2ccc3c(c2)N(C[C@@H]2CC[C@H]2C(O)C1)C[C@@]1(CCCc2cc(Cl)ccc21)CO3 (single isomer, unassigned) [Example 264]	31100	5.37	–	–
